In patent US20250333517A1 one finds EC50 data, which are given here for 2 substances.

As usually defined, the EC50 is the concentration giving half of the maximal effect. Lower therefore signals higher potency in that assay.

This test has as its target tumor necrosis factor-alpha (TNFα) (UniProt P01375). Nature of the test: ELISA, target binding (FIG. 59). (In general: In an ELISA, binding on a coated surface is turned into a signal by an enzyme label.)

In the case of “Adalimumab population of the present disclosure (Biobetter), produced by SAII A3 cells (antibody; other documents disagree on this pair)”, the EC50 is 0.373 nM. Take “commercially available Adalimumab product (Humira®) (antibody; other documents disagree on this pair)”: the EC50 was 0.213 nM.
